One may read the EC50 as the concentration giving half of the maximal effect. A lower EC50 goes with higher potency in that assay. Broadly, the Ki is a measure of affinity in units of concentration, obtained from inhibition or displacement.

Sequences of proteins named here, by UniProt entry; tags and fusion partners are left off. A change or cut given only in a name is not applied to a line headed by its entry.
UniProt P10275: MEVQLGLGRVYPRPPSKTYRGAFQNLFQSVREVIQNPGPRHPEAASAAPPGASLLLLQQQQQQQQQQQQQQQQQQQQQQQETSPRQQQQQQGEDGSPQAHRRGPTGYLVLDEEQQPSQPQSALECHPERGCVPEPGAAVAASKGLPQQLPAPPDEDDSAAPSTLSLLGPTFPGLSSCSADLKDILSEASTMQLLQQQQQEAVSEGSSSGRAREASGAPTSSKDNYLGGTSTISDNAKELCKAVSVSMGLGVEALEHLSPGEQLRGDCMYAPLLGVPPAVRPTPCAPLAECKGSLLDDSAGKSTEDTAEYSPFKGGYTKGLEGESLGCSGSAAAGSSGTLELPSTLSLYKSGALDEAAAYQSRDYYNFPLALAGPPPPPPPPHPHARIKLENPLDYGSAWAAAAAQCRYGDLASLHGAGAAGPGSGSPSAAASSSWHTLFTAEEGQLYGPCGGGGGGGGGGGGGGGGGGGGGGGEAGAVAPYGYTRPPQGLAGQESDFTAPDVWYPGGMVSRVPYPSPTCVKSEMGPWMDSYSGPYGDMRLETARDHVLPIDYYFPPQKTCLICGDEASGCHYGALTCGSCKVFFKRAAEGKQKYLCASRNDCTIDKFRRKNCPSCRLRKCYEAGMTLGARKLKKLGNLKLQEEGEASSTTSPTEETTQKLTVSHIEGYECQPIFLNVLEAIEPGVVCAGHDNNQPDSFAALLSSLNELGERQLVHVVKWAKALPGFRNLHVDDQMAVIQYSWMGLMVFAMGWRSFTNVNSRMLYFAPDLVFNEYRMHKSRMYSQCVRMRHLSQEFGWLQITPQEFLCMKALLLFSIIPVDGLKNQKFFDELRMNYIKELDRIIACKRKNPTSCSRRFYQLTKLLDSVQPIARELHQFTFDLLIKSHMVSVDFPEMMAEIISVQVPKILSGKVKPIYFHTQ

Test [1] addresses T1, Androgen receptor (Homo sapiens, UniProt P10275). The test can be described thus: Agonist activity at androgen receptor expressed in C2C12 mouse cells by luciferase reporter transactivation assay. The test is classed as functional, cell-based. Background: In a reporter assay the amount or activity of a reporter protein is the signal.
Test [2] addresses T1, Androgen receptor. Put plainly: Displacement of [3H]DHT from androgen receptor expressed in MDA-MB-453 cells. The test is classed as cell-based. A general note: Displacement assays read how much labelled ligand stays bound in the presence of the test substance.

Regarding `Cc1c(N2C(=O)N3CC[C@@H](O)[C@H]3[C@@H]2C)ccc(C#N)c1Cl`, the concentration for a half-maximal effect (EC50) on Androgen receptor [1] was determined as 13 nM. Besides, affinity at Androgen receptor [2] was put at a Ki of 2.9 nM.

On to `Cc1c(N2C(=O)N3CC[C@H](O)[C@H]3[C@@H]2C)ccc(C#N)c1Cl`, for which a half-maximal response at Androgen receptor [1] (EC50) required 5.2 nM. In addition, the affinity at Androgen receptor [2], expressed as Ki, was 1.5 nM.

Compound `Cc1c(N2C(=O)N3CC[C@H](O)[C@H]3[C@H]2C)ccc(C#N)c1Cl` came in with an EC50 at Androgen receptor [1] of 87 nM. This compound also had a Ki at Androgen receptor [2] of 4 nM.

For the compound `Cc1c(N2C[C@@H]3[C@H](O)CC[C@@H]3C2=O)ccc(C#N)c1Cl`, the affinity on Androgen receptor [2], expressed as Ki, was 2.2 nM.

At Androgen receptor [2], `CC1=C(c2ccc(C#N)c(Cl)c2C)C(=O)N2CC[C@H](O)[C@@H]12` returned a Ki of 0.5 nM.

(Values after ChEMBL document CHEMBL1145402, “Discovery of potent and muscle selective androgen receptor modulators through scaffold modifications” (J Med Chem, 2007).)
